Experimental data published in PubChem BioAssay (EPA / NIEHS).
Values joined by “and” are separate entries in the source; they are usually repeats but may differ in a detail not shown here. Equal values may be shown once. The entries are a selection whose mix differs from that of the whole data set. Results filed as inconclusive are left out. Active and inactive are the calls of the source. How the source made its calls, unless noted: active means hit-call score of the fitted dose curve at least 0.9, where 1 is the maximum; inactive means score below 0.9.

By UniProt entry, the sequences of proteins in these tests, tags left out. Where a name states a change or a piece, a line headed by the entry shows the natural chain unless it says otherwise.
UniProt P16581: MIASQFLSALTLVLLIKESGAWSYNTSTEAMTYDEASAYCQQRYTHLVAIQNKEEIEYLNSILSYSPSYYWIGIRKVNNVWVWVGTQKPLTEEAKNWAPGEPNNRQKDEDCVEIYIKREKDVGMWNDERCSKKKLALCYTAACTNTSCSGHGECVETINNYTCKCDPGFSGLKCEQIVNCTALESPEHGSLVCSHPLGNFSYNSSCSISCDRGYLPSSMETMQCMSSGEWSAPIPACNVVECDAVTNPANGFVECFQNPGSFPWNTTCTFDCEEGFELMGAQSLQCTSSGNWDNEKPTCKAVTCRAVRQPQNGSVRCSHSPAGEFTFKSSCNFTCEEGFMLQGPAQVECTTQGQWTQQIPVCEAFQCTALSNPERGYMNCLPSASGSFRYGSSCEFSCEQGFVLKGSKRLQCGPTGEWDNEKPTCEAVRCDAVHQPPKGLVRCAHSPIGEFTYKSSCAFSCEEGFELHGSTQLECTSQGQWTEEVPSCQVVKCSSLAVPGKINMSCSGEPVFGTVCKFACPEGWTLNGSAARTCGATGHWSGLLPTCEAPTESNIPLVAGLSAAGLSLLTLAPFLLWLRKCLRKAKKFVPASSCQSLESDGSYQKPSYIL
UniProt P11511: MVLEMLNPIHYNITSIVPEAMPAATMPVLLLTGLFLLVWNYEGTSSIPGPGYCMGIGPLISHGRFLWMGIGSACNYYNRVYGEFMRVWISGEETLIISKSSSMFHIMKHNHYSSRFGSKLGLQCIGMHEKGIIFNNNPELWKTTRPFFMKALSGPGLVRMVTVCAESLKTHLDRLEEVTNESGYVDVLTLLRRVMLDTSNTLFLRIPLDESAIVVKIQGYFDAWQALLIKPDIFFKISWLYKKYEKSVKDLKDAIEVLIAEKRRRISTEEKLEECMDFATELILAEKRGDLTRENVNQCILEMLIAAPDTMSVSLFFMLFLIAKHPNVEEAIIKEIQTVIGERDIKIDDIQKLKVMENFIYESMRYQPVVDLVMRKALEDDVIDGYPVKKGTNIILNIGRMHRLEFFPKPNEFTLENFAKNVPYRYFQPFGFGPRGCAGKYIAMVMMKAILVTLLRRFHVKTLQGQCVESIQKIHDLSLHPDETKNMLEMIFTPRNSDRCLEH
UniProt P04798: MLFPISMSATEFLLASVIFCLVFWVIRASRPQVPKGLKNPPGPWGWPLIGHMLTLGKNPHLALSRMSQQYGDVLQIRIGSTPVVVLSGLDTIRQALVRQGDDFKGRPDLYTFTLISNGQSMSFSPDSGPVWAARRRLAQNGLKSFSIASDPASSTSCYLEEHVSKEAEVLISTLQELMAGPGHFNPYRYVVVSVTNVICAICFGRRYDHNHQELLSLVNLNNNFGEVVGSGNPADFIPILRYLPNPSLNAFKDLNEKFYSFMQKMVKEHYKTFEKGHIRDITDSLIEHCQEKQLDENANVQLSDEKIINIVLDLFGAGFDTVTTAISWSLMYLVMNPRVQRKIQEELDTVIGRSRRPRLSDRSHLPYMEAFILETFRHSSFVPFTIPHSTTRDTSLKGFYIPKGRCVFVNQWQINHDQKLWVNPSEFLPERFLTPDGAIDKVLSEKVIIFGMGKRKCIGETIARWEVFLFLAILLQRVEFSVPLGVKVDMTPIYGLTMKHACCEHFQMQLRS
UniProt P20813: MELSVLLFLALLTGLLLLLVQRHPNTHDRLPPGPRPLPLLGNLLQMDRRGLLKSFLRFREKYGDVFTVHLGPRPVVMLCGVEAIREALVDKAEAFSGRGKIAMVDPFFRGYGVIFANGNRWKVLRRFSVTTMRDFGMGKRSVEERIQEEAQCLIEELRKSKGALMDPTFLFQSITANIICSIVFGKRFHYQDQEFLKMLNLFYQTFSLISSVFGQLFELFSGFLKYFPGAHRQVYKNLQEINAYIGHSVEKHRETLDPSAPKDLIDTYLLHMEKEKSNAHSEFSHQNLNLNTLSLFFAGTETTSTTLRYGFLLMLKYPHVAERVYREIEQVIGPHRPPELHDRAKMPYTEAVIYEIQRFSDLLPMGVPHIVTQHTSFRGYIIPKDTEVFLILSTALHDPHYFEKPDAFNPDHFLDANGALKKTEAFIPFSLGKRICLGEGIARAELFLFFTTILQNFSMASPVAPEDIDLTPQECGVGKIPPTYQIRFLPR
UniProt P05177, whole entry, looked up: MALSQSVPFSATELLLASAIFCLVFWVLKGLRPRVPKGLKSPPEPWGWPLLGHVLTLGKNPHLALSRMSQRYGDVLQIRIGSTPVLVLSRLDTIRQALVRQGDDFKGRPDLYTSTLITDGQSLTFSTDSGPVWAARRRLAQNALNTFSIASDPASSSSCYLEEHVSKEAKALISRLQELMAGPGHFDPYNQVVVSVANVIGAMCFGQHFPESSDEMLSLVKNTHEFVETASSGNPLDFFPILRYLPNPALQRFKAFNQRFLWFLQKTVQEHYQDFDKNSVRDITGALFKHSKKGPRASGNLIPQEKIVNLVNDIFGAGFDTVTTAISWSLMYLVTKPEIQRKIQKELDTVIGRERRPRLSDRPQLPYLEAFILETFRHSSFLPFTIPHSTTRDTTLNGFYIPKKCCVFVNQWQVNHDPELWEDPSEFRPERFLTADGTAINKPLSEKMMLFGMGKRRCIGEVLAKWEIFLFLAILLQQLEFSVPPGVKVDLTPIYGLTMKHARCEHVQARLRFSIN
UniProt P33260, whole entry, looked up: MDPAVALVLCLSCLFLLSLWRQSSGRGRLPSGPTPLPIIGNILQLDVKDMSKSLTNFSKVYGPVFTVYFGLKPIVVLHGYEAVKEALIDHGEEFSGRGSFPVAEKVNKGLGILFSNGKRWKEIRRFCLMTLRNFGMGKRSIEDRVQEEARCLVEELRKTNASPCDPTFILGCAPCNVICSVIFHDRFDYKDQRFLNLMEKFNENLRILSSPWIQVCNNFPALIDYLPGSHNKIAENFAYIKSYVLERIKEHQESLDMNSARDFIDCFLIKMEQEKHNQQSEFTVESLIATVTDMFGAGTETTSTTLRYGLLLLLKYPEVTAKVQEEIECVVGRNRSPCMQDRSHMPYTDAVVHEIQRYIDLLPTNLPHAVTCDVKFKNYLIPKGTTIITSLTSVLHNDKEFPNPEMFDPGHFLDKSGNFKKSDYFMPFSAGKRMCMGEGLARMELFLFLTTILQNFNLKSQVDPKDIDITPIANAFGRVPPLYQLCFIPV
UniProt P10632, whole entry, looked up: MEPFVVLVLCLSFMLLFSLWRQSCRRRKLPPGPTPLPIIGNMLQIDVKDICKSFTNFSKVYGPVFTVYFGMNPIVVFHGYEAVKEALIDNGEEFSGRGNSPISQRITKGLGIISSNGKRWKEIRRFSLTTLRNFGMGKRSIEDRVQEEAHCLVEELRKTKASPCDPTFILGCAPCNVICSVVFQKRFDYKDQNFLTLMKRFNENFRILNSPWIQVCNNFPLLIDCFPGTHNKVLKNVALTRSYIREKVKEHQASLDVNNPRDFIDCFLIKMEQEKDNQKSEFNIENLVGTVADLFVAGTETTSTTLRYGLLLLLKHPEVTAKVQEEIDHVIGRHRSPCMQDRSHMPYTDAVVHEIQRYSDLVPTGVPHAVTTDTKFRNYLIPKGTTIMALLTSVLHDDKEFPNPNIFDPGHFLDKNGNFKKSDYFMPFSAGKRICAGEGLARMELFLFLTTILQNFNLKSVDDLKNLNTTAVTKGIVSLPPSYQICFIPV
UniProt P51589: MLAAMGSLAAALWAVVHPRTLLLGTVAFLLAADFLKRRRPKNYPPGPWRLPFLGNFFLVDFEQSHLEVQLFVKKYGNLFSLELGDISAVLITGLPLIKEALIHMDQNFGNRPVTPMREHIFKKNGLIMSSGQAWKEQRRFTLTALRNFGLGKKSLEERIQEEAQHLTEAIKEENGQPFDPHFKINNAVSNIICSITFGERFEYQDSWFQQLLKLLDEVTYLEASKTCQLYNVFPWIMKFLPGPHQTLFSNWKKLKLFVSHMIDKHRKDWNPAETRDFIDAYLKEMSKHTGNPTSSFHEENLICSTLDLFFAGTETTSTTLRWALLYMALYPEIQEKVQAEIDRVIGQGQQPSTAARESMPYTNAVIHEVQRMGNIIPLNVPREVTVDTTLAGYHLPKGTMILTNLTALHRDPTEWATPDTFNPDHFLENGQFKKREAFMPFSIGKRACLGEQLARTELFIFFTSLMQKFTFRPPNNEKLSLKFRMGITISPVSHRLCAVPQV
UniProt P10635, whole entry, looked up: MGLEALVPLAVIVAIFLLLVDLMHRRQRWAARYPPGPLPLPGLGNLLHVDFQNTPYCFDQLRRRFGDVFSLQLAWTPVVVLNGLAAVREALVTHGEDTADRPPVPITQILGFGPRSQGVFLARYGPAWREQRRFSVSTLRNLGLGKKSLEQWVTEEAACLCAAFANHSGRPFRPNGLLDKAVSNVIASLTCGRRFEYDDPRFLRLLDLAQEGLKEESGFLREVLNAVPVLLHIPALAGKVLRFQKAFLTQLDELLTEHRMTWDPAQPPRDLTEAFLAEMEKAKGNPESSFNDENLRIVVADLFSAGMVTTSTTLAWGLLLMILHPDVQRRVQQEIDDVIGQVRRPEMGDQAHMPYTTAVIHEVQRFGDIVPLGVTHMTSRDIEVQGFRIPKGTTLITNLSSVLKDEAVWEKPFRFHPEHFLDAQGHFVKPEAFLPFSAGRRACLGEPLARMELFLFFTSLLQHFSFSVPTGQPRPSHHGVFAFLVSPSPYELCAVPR
UniProt P11712, whole entry, looked up: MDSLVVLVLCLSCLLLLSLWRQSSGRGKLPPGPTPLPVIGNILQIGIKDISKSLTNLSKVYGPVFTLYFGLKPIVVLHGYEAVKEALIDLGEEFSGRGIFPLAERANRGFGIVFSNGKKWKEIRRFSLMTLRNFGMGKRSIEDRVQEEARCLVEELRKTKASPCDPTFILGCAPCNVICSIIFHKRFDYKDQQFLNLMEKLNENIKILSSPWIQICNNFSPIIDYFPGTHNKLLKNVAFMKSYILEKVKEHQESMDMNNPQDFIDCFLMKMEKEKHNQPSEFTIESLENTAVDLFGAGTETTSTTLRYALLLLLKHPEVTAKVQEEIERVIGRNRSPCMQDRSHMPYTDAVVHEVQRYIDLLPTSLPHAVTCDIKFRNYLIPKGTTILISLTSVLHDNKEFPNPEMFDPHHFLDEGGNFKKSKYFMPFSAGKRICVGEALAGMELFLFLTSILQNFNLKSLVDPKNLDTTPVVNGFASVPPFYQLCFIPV
UniProt P08684, whole entry, looked up: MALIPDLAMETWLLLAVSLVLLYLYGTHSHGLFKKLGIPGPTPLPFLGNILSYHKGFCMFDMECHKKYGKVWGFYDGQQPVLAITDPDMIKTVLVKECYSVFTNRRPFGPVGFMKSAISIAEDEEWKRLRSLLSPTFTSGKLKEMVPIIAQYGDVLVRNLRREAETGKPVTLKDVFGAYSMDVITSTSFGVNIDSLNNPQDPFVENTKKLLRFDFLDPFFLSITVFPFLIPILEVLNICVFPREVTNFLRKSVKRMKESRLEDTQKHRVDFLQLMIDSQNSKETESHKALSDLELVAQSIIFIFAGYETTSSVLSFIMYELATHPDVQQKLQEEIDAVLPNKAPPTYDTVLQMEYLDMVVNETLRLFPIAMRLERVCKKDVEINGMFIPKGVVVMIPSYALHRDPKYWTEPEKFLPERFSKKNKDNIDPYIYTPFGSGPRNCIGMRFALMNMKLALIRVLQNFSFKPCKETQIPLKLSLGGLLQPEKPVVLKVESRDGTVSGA
UniProt P11509: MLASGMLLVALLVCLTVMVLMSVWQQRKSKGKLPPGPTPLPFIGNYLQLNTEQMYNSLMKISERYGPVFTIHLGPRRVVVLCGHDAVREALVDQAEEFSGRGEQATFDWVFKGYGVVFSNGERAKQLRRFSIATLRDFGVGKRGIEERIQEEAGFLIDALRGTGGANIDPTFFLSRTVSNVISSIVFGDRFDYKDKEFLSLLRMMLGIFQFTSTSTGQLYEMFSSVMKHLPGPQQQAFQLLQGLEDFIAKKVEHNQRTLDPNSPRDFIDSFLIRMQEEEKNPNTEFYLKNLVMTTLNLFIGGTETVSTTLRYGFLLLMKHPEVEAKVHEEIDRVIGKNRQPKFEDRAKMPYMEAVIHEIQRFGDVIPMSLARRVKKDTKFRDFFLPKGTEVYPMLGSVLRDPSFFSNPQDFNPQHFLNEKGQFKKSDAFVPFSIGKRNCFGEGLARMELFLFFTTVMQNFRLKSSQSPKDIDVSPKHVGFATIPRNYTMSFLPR

Tests used:
[1] = read-out: CD40, CD40 (gene 958); assay: BSK_SAg_CD40: BioMAP Diversity Plus: SAg Assay for CD40 Biomarker Activity (AID 2283088); settings: actives raise or lower the signal; primary human HUVEC with PBMC
How it was run: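 Compounds were dosed onto a human primary endothelial–PBMC co-culture, and after 24 h CD40 was quantified by ELISA using a fluorescence signal. Activity in either direction was fitted relative to DMSO.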

[2] = read-out: CD69, CD69 (gene 969); assay: BSK_SAg_CD69: BioMAP Diversity Plus: SAg Assay for CD69 Biomarker Activity (AID 2283089); settings: actives raise or lower the signal; primary human HUVEC with PBMC;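 on AC50: cell surface CD69 protein quantified by ELISA with fluorescence detection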
How it was run: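 Endothelial/PBMC co-culture; chemical added; 24 h incubation; CD69 ELISA with fluorescence detection; bidirectional fit vs DMSO.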

[3] = read-out: Monocyte Chemoattractant Protein-1 (MCP1), CCL2 (gene 6347); assay: BSK_SAg_MCP1: BioMAP Diversity Plus: SAg Assay for Monocyte Chemoattractant Protein-1 (MCP1) Biomarker Activity (AID 2283090); settings: actives raise or lower the signal; primary human HUVEC with PBMC
How it was run: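 Values derive from bidirectional fitting of ELISA-measured MCP1 against DMSO controls. Readings were taken 24 h after dosing human vascular endothelial cells co-cultured with peripheral blood mononuclear cells under superantigen stimulation.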

[4] = read-out: E-selectin (Homo sapiens) (UniProt P16581); assay: BSK_SAg_Eselectin: BioMAP Diversity Plus: SAg Assay for Eselectin Biomarker Activity (AID 2283091); settings: actives raise or lower the signal; primary human HUVEC with PBMC
How it was run: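 Co-culture: HUVEC + PBMC. Dose compound; 24 h. ELISA for E-selectin. Bidirectional fit vs DMSO.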

[5] = read-out: Monokine induced gamma interferon (MIG), CXCL9 (gene 4283); assay: BSK_SAg_MIG: BioMAP Diversity Plus: SAg Assay for Monokine induced gamma interferon (MIG) Biomarker Activity (AID 2283092); settings: actives raise or lower the signal; primary human HUVEC with PBMC
How it was run: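 Measures CXCL9 protein by ELISA in a human vascular primary-cell co-culture (umbilical vein endothelium with PBMC) 24 h after chemical addition. Activity is scored up or down from the DMSO control.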

[6] = BSK_SAg_PBMCCytotoxicity: PBMC Cytotoxicity Assessment in the BioMAP Diversity Plus: SAg Assay (AID 2283093); settings: primary human HUVEC with PBMC;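 further: PBMC viability measured as Alamar Blue reduction fluorescence at 546/580 nm; fitted both ways against DMSO so a hit may be loss or gain of signal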;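 on AC50: PBMC superantigen activated with SEB plus TSST-1 one hour after compound addition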
How it was run: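 Alamar Blue reduction (6 h, ex/em 546/580 nm) read after 90 h culture of PBMC pre-dosed 1 h then stimulated with SEB plus TSST-1, 20 ng/mL each. Gain or loss of signal fitted relative to DMSO.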

[7] = read-out: Interleukin-8 (IL8), CXCL8 (gene 3576); assay: BSK_SAg_IL8: BioMAP Diversity Plus: SAg Assay for Interleukin-8 (IL8) Biomarker Activity (AID 2283094); settings: actives raise or lower the signal; primary human HUVEC with PBMC
How it was run: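 Primary human endothelial cells with PBMC, exposed 24 h; IL-8 determined by ELISA, analysed bidirectionally relative to DMSO.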

[8] = BSK_SAg_Proliferation: Cell Proliferation Assessment in the BioMAP Diversity Plus: SAg Assay (AID 2283095); settings: primary human HUVEC with PBMC;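 further: relative cell number as total protein by SRB absorbance in sub-confluent culture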
How it was run: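 A human primary co-culture of umbilical vein endothelium and blood mononuclear cells receives compound; relative cell number is quantified at 96 h by SRB staining and 560 nm absorbance, with DMSO-referenced bidirectional curve fitting.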

[9] = BSK_SAg_SRB: Viability Assessment in the BioMAP Diversity Plus: SAg Assay (AID 2283096); settings: primary human HUVEC with PBMC;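 further: cells read one day after compound addition; hits may be either gain or loss of signal compared with DMSO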
How it was run: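 SRB absorbance at 560 nm served as the viability read-out. Cells (HUVEC plus peripheral blood mononuclear cells) were TCA-fixed and stained 24 h post-dosing; activity fitted in both directions against DMSO controls.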

[10] = biological target: human CYP19A1, CYP19A1 (gene 1588) (UniProt P11511); assay: NVS_ADME_hCYP19A1: NovaScreen (NVS) CYP450-related Enzyme Activity (ADME) Assay for human CYP19A1 (AID 2283098; active means hit-call score of the fitted dose curve at least 0.9, where 1 is the maximum)
How it was run: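 Primary testing was in duplicate at a single 10 uM concentration, with actives followed up in concentration-response series. Fluorescence read-out of recombinant enzyme activity at 0.5 h, cell-free. Acetonitrile was the negative-control baseline.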

[11] = biological target: human CYP1A1, CYP1A1 (gene 1543) (UniProt P04798); assay: NVS_ADME_hCYP1A1: NovaScreen (NVS) CYP450-related Enzyme Activity (ADME) Assay for human CYP1A1 (AID 2283100; active means hit-call score of the fitted dose curve at least 0.9, where 1 is the maximum)
How it was run: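 Recombinant hCYP1A1 + fluorogenic substrate, cell-free; 1 h; fluorescence read. Single-point 10 uM (duplicate) → concentration series, max 20 uM. Acetonitrile negative control.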

[12] = biological target: human CYP2B6, CYP2B6 (gene 1555) (UniProt P20813); assay: NVS_ADME_hCYP2B6: NovaScreen (NVS) CYP450-related Enzyme Activity (ADME) Assay for human CYP2B6 (AID 2283101; active means hit-call score of the fitted dose curve at least 0.9, where 1 is the maximum)
How it was run: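 Recombinant protein, specific fluorescent substrate, read at 1 h post-dosing. Primary: single 10 uM, duplicate; follow-up: concentration series. Activity = signal loss vs acetonitrile baseline, with positive and negative controls on every plate.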

[13] = biological target: human CYP1A2, CYP1A2 (gene 1544) (UniProt P05177); assay: NVS_ADME_hCYP1A2: NovaScreen (NVS) CYP450-related Enzyme Activity (ADME) Assay for human CYP1A2 (AID 2283102; active means hit-call score of the fitted dose curve at least 0.9, where 1 is the maximum;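 further: fluorescence from turnover of a fluorogenic substrate by recombinant insect-cell CYP1A2; potency for inhibition since loss of fluorescence marks reduced CYP1A2 activity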)
How it was run: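 rec. hCYP1A2 (insect cells), cell-free; fluorogenic substrate; 0.5 h; FI read. Baseline = acetonitrile; signal loss = inhibition. 10 uM duplicate primary → conc. series for actives.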

[14] = biological target: Cytochrome P450 2C18 (Homo sapiens) (UniProt P33260); assay: NVS_ADME_hCYP2C18: NovaScreen (NVS) CYP450-related Enzyme Activity (ADME) Assay for human CYP2C18 (AID 2283103)
How it was run: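 Enzyme activity measured by fluorescence 0.5 h after compound addition, using recombinant CYP2C18 and a specific substrate. Actives from duplicate 10 uM screening were retested in concentration series (top 20 uM); acetonitrile served as negative baseline.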

[15] = biological target: human CYP2C8, CYP2C8 (gene 1558) (UniProt P10632); assay: NVS_ADME_hCYP2C8: NovaScreen (NVS) CYP450-related Enzyme Activity (ADME) Assay for human CYP2C8 (AID 2283104)
How it was run: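 Fluorescence readout of substrate turnover by recombinant CYP2C8 after 0.5 h, baseline acetonitrile. Single-concentration duplicate screen at 10 uM preceded singleton concentration series (max 20 uM) for compounds passing the inhibition threshold.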

[16] = biological target: human CYP2J2, CYP2J2 (gene 1573) (UniProt P51589); assay: NVS_ADME_hCYP2J2: NovaScreen (NVS) CYP450-related Enzyme Activity (ADME) Assay for human CYP2J2 (AID 2283106; active means hit-call score of the fitted dose curve at least 0.9, where 1 is the maximum)
How it was run: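 Chemicals were first tested at 10 uM in duplicate, and hits meeting criteria such as 30% inhibition were run in singleton concentration series with a 20 uM top concentration. Enzyme activity of recombinant CYP2J2 was measured by fluorescence after 1 h, relative to acetonitrile.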

[17] = biological target: human CYP2D6, CYP2D6 (gene 1565) (UniProt P10635); assay: NVS_ADME_hCYP2D6: NovaScreen (NVS) CYP450-related Enzyme Activity (ADME) Assay for human CYP2D6 (AID 2283107; active means hit-call score of the fitted dose curve at least 0.9, where 1 is the maximum)
How it was run: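 Insect-cell recombinant enzyme + fluorogenic substrate, cell-free; 1 h incubation; fluorescence intensity readout. Acetonitrile = neg. ctrl/baseline. Single-point 10 uM, duplicate; follow-up concentration series.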

[18] = biological target: human CYP2C9, CYP2C9 (gene 1559) (UniProt P11712); assay: NVS_ADME_hCYP2C9: NovaScreen (NVS) CYP450-related Enzyme Activity (ADME) Assay for human CYP2C9 (AID 2283108; active means hit-call score of the fitted dose curve at least 0.9, where 1 is the maximum)
How it was run: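 Fluorescence readout of CYP2C9 activity (SF9-expressed human enzyme) at 0.75 h. The primary screen used 10 uM in duplicate, with concentration-response follow-up for actives; acetonitrile was the negative control.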

[19] = biological target: Cytochrome P450 3A4 (Homo sapiens) (UniProt P08684); assay: NVS_ADME_hCYP3A4: NovaScreen (NVS) CYP450-related Enzyme Activity (ADME) Assay for human CYP3A4 (AID 2283110; active means hit-call score of the fitted dose curve at least 0.9, where 1 is the maximum)
How it was run: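 Compounds screened in duplicate at 10 uM, with follow-up concentration-response for actives, against insect-cell-expressed recombinant enzyme. Activity read by fluorescence 0.33 h after dosing; loss of signal versus acetonitrile control indicates inhibition.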

[20] = biological target: human CYP2A6, CYP2A6 (gene 1548) (UniProt P11509); assay: NVS_ADME_hCYP2A6: NovaScreen (NVS) CYP450-related Enzyme Activity (ADME) Assay for human CYP2A6 (AID 2283099; active means hit-call score of the fitted dose curve at least 0.9, where 1 is the maximum)
How it was run: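 Fluorescent substrate turnover by recombinant CYP2A6 (insect cell source), 0.5 h read. Screen: 10 uM, duplicate; threshold hits (e.g. 30% inhibition) → singleton concentration-response, top 20 uM. Positive and negative controls on every plate.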

## O=C(Cl)Oc1ccccc1
[1]
  outcome: inactive
[2]
  outcome: inactive
[3]
  outcome: inactive
[4]
  outcome: inactive
[5]
  outcome: inactive
[6]
  outcome: inactive
[7]
  outcome: inactive
[8]
  outcome: inactive
[9]
  outcome: inactive

## CC(C)OP(=S)(OC(C)C)SCCNS(=O)(=O)c1ccccc1
[1]
  AC50: active: 30.3 µM and active: 30.1 µM and active: 33.1 µM
[2]
  AC50: active: 32.8 µM and active: 20 µM
[3]
  AC50: active: 30.1 µM and active: 31.9 µM and active: 33.4 µM
[10]
  outcome: inactive
[11]
  AC50: active: 1.02 µM and active: 688 nM and active: 659 nM
[12]
  AC50: active: 1.17 µM and active: 748 nM and active: 1.1 µM
[13]
  AC50: active: 2.77 µM and active: 3.64 µM and active: 1.98 µM
[14]
  AC50: active: 457 nM and active: 442 nM and active: 405 nM
[15]
  AC50: active: 736 nM and active: 1.04 µM and active: 861 nM
[16]
  AC50: active: 295 nM and active: 246 nM and active: 423 nM
[17]
  AC50: active: 3.68 µM and active: 3.64 µM and active: 2.79 µM
[18]
  AC50: active: 2.15 µM and active: 2.21 µM and active: 2.25 µM
[19]
  AC50: active: 668 nM and active: 438 nM and active: 450 nM

## Cc1cc([N+](=O)[O-])cc([N+](=O)[O-])c1O
[1]
  AC50: active: 20 µM
[2]
  AC50: active: 13.7 µM
[3]
  AC50: active: 5.12 µM
[4]
  AC50: active: 11.8 µM
[5]
  outcome: inactive
[6]
  AC50: active: 7.63 µM
[7]
  AC50: active: 5.43 µM
[9]
  outcome: inactive
[13]
  AC50: active: 7.5 µM

## CN(C(=O)Cc1cccc2occc12)[C@H]1CC[C@@]2(CCCO2)C[C@@H]1N1CCCC1
[1]
  outcome: inactive
[2]
  outcome: inactive
[3]
  outcome: inactive
[4]
  outcome: inactive
[5]
  outcome: inactive
[6]
  outcome: inactive
[7]
  outcome: inactive
[8]
  outcome: inactive
[9]
  outcome: inactive
[10]
  outcome: inactive
[18]
  AC50: active: 9 µM

## O=C1C2CC=CCC2C(=O)N1SC(Cl)(Cl)C(Cl)Cl (centres undefined)
[1]
  AC50: active: 12.6 µM
[5]
  AC50: active: 22.1 µM
[6]
  AC50: active: 6.05 µM
[8]
  AC50: active: 1.53 µM
[9]
  AC50: active: 19 µM
[20]
  AC50: active: 0.973 µM
[14]
  AC50: active: 290 nM
[15]
  AC50: active: 122 nM

## O=[N+]([O-])c1ccc([N+](=O)[O-])cc1
[1]
  outcome: inactive
[2]
  AC50: active: 6.32 µM
[3]
  outcome: inactive
[4]
  outcome: inactive
[5]
  outcome: inactive
[6]
  outcome: inactive
[7]
  AC50: active: 9.4 µM
[8]
  AC50: active: 11 µM
[9]
  outcome: inactive
